The values below come from PMC4102417 (PLoS Neglected Tropical Diseases, 2014).

Series [1] concerns T. cruzi (Tulahuen strain).
A further series is described as follows: in vitro. It counts as cell-based, murine. The conditions noted are these: mouse, 3T3 fibroblasts, separate assays separated by semicolons, read-out: Mammalian cell CC50.

A word on the CC50: it is the concentration that lowers cell viability or growth by half. `COc1cc(NC(C)CCCN)c2ncccc2c1.O=P(O)(O)O.O=P(O)(O)O` (stereo not drawn) [Primaquine, N-(5-aminopentan-2-yl)-6-methoxyquinolin-8-amine; bis(phosphoric acid)]: in series [1], the Selectivity index worked out at 26.3 and the “T. cruzi EC50 / activity in words” value is on record as “high nanomolar”. The 50% cytotoxic concentration (CC50) at 72 h in “in vitro” amounted to 7.9 µM.
